One compound from PubChem BioAssay (NCI) can be followed below.

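Values below derive from 48-hour exposures of cells grown in 96-well plates, with endpoints linearly interpolated between the two concentrations bracketing the appropriate inhibition level. At the GI50, growth is halved. TGI marks complete inhibition of growth.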

Some test systems named below: HOP-92 NSCLC; NCI-H226 lung; NCI-H23 lung; UACC-257 melanoma.
Common to all, as to experiment: NCI-60 cell line screen, 48 h

As to `OCC1OC(OCCO/N=C2/C(c3c(O)[nH]c4ccccc34)=Nc3ccccc32)C(O)C(O)C1O` (stereo not drawn), the GI50 was 47.3 µM in the experiment with HOP-92 NSCLC, 1.25 µM with NCI-H226 lung, 0.675 µM in the experiment with NCI-H23 lung and greater than 100 µM with UACC-257 melanoma. Moreover, the TGI in the experiment with HOP-92 NSCLC, in the experiment on NCI-H226 lung, in the experiment with NCI-H23 lung and with UACC-257 melanoma was greater than 100 µM each time.
